Screens as filed in PubChem BioAssay.
Only some compounds are listed: those with a hit (about 1.9% of all), similar ones and a draw of the others.
ARNT TACC3 PPI: disruptors of ARNT/TACC3 protein interaction, primary screen, biochemical, AlphaScreen, single concentration | Transforming acidic coiled-coil-containing protein 3 (Homo sapiens), Q9Y6A5 | AlphaScreen His-ARNT PAS-B/GST-TACC3 binding, luminescence; TACC3 fragment carries E629A point mutation | inhibition, % at 9.99 µM | actives 0.66% (n = 390,000) | AID 623870, 2012;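 active = mean inhibition of replicates at least 50% and at least half of replicates each reaching 50%; inconclusive = half or more replicates reach 50% but mean below 50%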
PDI turbidity: inhibitors of human PDI, primary screen, biochemical, turbidity, single point, plate reader; PDI insulin aggregation turbidity, A650, 90 min; inhibition, % at 10 µM; actives 0.052% (n = 350,000); AID 588391, 2011;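 active = mean inhibition across replicates of 30% or more, whatever share of single replicates reach that level; inconclusive = mean inhibition below 30% while every single replicate reaches 30%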
ERp5 inh: inhibitors of ERp5-driven insulin aggregation, primary screen, biochemical, turbidity, absorbance 650 nm, single point; Protein disulfide-isomerase A6 (Homo sapiens), Q15084; 90 min; inhibition, % at 9.99 µM; actives 0.05% (n = 350,000);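 active = mean replicate inhibition above about 25%, with every replicate also reaching it, limit read from the data, passing the limit was not always enough; inconclusive = only one of those two criteria met; inactive = neither criterion met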
FGF22 binding: binders of human FGF22 protein, primary screen, FGF22 synaptogenesis inhibitor project, biophysical, thermal shift, single point | activity (Tm shift, normalised), % at 9.99 µM | actives 1.5% (n = 340,000) | recombinant FGF22 thermal shift, SYPRO orange fluorescence; percent of sucrose octasulfate shift, DMSO zero | Fibroblast growth factor 22 (Homo sapiens), Q9HCT0 | AID 651658, 2012;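 active = mean Tm shift, scaled 0 neutral to 100 positive control, at about 1.3% or above, every replicate too, limit read from the data; inconclusive = no clear call, values can overlap the other calls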
PglD inh: C. jejuni PglD acetyltransferase inhibitors, primary screen, biochemical, DTNB colorimetric, single point; UDP-N-acetylbacillosamine N-acetyltransferase PglD (Campylobacter jejuni); purified PglD enzyme, DTNB colorimetric CoA detection; inhibition, % at 12.5 µM; actives 0.098% (n = 360,000); in the data active = inhibition above about 16%, passing the limit was not always enough; inconclusive = no clear call, values can overlap the other calls
Yeast UUG start: modulators of yeast start codon fidelity, primary screen, whole organism, S. cerevisiae, single point, plate reader; S. cerevisiae UUG-firefly luciferase reporter, luminescence/redox ratio; activity score, % at 18.7 µM; 0.13% of 350,000 active; AID 602363, 2012;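 active = replicate mean at a twofold rise or more, about +100% in these data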;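 also: firefly luciferase made from a UUG start codon reports start codon fidelity; reporter light over untreated wells divided by growth signal over untreated wells; some hits fall short of that in this replicate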
Of the large screens only hits and unclear results are named; the others gave an inactive call.

CCS(=O)(=O)N1CCC2(CC1)CN(C(=O)Nc1cccc(F)c1)[C@@H](CO)c1c2c2ccc(OC)cc2n1C	none (no result: ARNT TACC3 PPI, PDI turbidity, PglD inh, Yeast UUG start)
CC(=O)c1ccc(NC(=O)c2cc(Cl)nc3ccccc23)cc1	PDI turbidity inconclusive, FGF22 binding 43 (no result: PglD inh, Yeast UUG start)
COCCOC(=O)C1=C(C)NC(=S)NC1c1cccs1 (stereo not given)	FGF22 binding 43
O=C(NCC1CC1)[C@H]1[C@H](CO)[C@H]2Cn3c(ccc(-c4cccc(F)c4)c3=O)[C@H]2N1CC1CC1	none (no result: PDI turbidity, FGF22 binding)
NC(=O)CSc1nccn1Cc1ccccc1	FGF22 binding 43
Nc1nc(NC(=O)C(Cl)(Cl)Cl)nn1-c1ccccc1	ARNT TACC3 PPI 64
Cc1ccc(S(=O)(=O)N(C)C[C@H]2Oc3c(NS(=O)(=O)c4ccc(Cl)cc4)cccc3C(=O)N([C@H](C)CO)C[C@H]2C)cc1	none (no result: ARNT TACC3 PPI, PDI turbidity)
C[C@H](NC(=O)[C@@H]1[C@@H](CO)[C@@H]2Cn3c(ccc(C4=CCCC4)c3=O)[C@@H]2N1C)c1ccccc1	none (no result: PDI turbidity, FGF22 binding)
Cc1ccc(S(=O)(=O)Nc2ccc3c(c2)CC(=O)N([C@@H](C)CO)C[C@@H](C)[C@@H](CN(C)S(=O)(=O)c2ccc(C)cc2)O3)cc1	none (no result: PDI turbidity)
CN(C)C(=O)C[C@@H]1C[C@H]2c3cc(NC(=O)C4CCC4)ccc3O[C@H]2[C@@H](CO)O1	none (no result: PDI turbidity)
Cc1cc(C)cc(C(=O)N[C@@H](C)C(=O)N2CCC3(CC2)NCCc2[nH]cnc23)c1	FGF22 binding 43
COc1cc(C(=O)N[C@@H](C)C(=O)N2CCC3(CC2)NCCc2[nH]cnc23)cc(OC)c1OC	none
CO[C@H]1CN(C)C(=O)c2cc(NS(=O)(=O)c3ccccc3F)ccc2OC[C@H](C)NC[C@@H]1C	none (no result: PDI turbidity)
CCS(=O)(=O)c1nc(S(=O)(=O)c2ccc(Cl)cc2)c(N2CCC3(CC2)OCCO3)s1	FGF22 binding 43
CS(=O)(=O)c1nc(S(=O)(=O)c2ccc(Cl)cc2)c(N2CCC3(CC2)OCCO3)s1	none
CCN(CC)c1ccc(/C=N/NC(=S)NC)c(O)c1	ARNT TACC3 PPI 60 (no result: PglD inh, Yeast UUG start)
CCN(CC)c1ccc(/C=N/N=C(N)N)c(O)c1	ARNT TACC3 PPI 48 (no result: PglD inh, Yeast UUG start)
CCN(CC)c1ccc(/C=N/NC(=O)OC)c(O)c1	none (no result: ERp5 inh, FGF22 binding)
CCN(CC)c1ccc(N=Cc2ccc(N(CC)CC)cc2O)cc1	none (no result: ERp5 inh, FGF22 binding, PglD inh, Yeast UUG start)
C[C@@H]1CN([C@@H](C)CO)C(=O)c2cc(NC(=O)Nc3ccccc3)ccc2O[C@@H](C)CCCCO[C@@H]1CN(C)C(=O)C1CCCCC1	none (no result: PDI turbidity)
COc1ccc(CNC(=O)C(c2ccncc2)N(C(=O)Cc2cccs2)c2ccccc2)cc1 (stereo not given)	none (no result: ARNT TACC3 PPI, PglD inh, Yeast UUG start)
COc1ccc(N(C(=O)CCl)C(C(=O)NCCc2ccccc2)c2cccs2)cc1 (stereo not given)	FGF22 binding 43
CCN(Cc1ccccc1)S(=O)(=O)c1ccc(C(=O)Nc2nnc(-c3ccccc3OC)o2)cc1	none (no result: FGF22 binding)
COCCN(CCOC)S(=O)(=O)c1ccc(C(=O)Nc2nnc(C3CC3)o2)cc1	ARNT TACC3 PPI 47 (no result: ERp5 inh, FGF22 binding)
COc1ccccc1-c1nnc(NC(=O)c2ccc(S(=O)(=O)N(C)C)cc2)o1	ARNT TACC3 PPI 57 (no result: ERp5 inh, FGF22 binding)
COCc1nnc(NC(=O)c2ccc(S(=O)(=O)N3CCCC3)cc2)o1	ARNT TACC3 PPI 49
CCc1nnc(NC(=O)c2ccc(S(=O)(=O)N(CCOC)CCOC)cc2)o1	ARNT TACC3 PPI 46 (no result: ERp5 inh, FGF22 binding)
CO[C@@H]1CN(C)C(=O)c2cc(NS(=O)(=O)c3ccc(F)cc3)ccc2OC[C@H](C)NC[C@H]1C	none (no result: PDI turbidity)
CCCN1[C@@H]2c3ccc(-c4cccc(F)c4)c(=O)n3C[C@H]1[C@H](CO)[C@H]2C(=O)NCC	none (no result: PDI turbidity, FGF22 binding)
O=C(CCSc1ccccc1)N1CCOCC1	none (no result: ARNT TACC3 PPI, ERp5 inh, FGF22 binding)
O=C(CCSc1ccccc1)N1CCCC1	FGF22 binding 44
O=C(N[C@H]1CC[C@H](CCNS(=O)(=O)c2ccccc2Cl)O[C@@H]1CO)c1ccccc1	none (no result: PDI turbidity)
Cc1cc(NC(=O)CSc2nnc(C3COc4ccccc4O3)n2N)no1 (stereo not given)	FGF22 binding 43
C=CCn1c(SCC(=O)Nc2cc(C)on2)nnc1C1COc2ccccc2O1 (stereo not given)	none (no result: PglD inh, Yeast UUG start)
C[C@H](CO)N1C[C@H](C)[C@@H](CN(C)C(=O)CN2CCOCC2)Oc2cc(/C=C/c3ccccc3)ccc2S1(=O)=O	none (no result: PDI turbidity, Yeast UUG start)
Cc1cc(C)nc(N2CCCC(C(=O)NCc3ccccc3)C2)n1 (stereo not given)	none (no result: ERp5 inh, FGF22 binding, PglD inh, Yeast UUG start)
Cc1ccc(CNC(=O)C2CCCN(c3nc(C)cc(C)n3)C2)cc1 (stereo not given)	FGF22 binding 43 (no result: PglD inh, Yeast UUG start)
O=C1NC(=O)/C(=C\c2ccc(Oc3ccc([N+](=O)[O-])cn3)cc2)S1	none (no result: PDI turbidity, ERp5 inh, FGF22 binding, PglD inh, Yeast UUG start)
O=[N+]([O-])c1ccc(Oc2ccc(/C=N/O)cc2)nc1	FGF22 binding 43 (no result: PglD inh, Yeast UUG start)
COc1ccc(NC(=S)N(CCCN2CCN(C)CC2)Cc2cccs2)cc1	ARNT TACC3 PPI 85 (no result: ERp5 inh, FGF22 binding)
COc1ccc(NC(=O)Nc2ccc3c(c2)C(=O)N([C@H](C)CO)C[C@H](C)[C@H](CN(C)C(=O)Nc2cccc4ccccc24)O3)cc1	none (no result: PDI turbidity)
O=C(NNS(=O)(=O)c1ccc(F)cc1)c1ccccc1	none
O=C(NNc1ccccn1)C(=O)NNS(=O)(=O)c1ccc(F)cc1	ARNT TACC3 PPI 63 (no result: ERp5 inh, FGF22 binding, PglD inh, Yeast UUG start)
CCC(C)N(C(=O)CSc1ccc(NC(C)=O)cc1)C1CCS(=O)(=O)C1 (stereo not given)	FGF22 binding 43 (no result: PglD inh, Yeast UUG start)
COCC(=O)N(C)C[C@@H]1Oc2cc(C#C[C@H](C)O)ccc2S(=O)(=O)N([C@H](C)CO)C[C@H]1C	none (no result: PDI turbidity)
O=C(c1cc(-c2ccc(Cl)cc2Cl)on1)N1CCCC1	FGF22 binding 44
CC(C)c1ccc(NC(=O)COc2ccccn2)cc1	FGF22 binding 43 (no result: PglD inh, Yeast UUG start)
O=C(CSc1ccc(-c2cccnc2)nn1)c1ccc([N+](=O)[O-])cc1	none (no result: PglD inh, Yeast UUG start)
CCc1ccc(NC(=O)CSc2ccc(-c3cccnc3)nn2)cc1	none
CCOC(=O)c1ccccc1NC(=O)CSc1ccc(-c2ccccn2)nn1	ARNT TACC3 PPI 64
O=C(CSc1ccc(-c2ccccn2)nn1)c1ccc([N+](=O)[O-])cc1	ARNT TACC3 PPI 52 (no result: PglD inh, Yeast UUG start)
CCc1ccc(NC(=O)CSc2ccc(-c3ccccn3)nn2)cc1	ARNT TACC3 PPI 51
CNC[C@@H]1Oc2cc(-c3ccccc3F)ccc2S(=O)(=O)N([C@@H](C)CO)C[C@H]1C	none (no result: PDI turbidity)
